Values after ≈ are worked out from the molar mass of the structure shown.
Legend:
[1] = biological target: aldehyde oxidase (AO), monkey liver S9 (Macaca fascicularis, UniProt Q5FB27); experiment: Aldehyde oxidase involvement, liver S9
[2] = biological target: aldehyde oxidase (AO), human liver S9 (Homo sapiens, UniProt Q06278); experiment: Aldehyde oxidase involvement, liver S9
[3] = Binding in brain homogenate, equilibrium dialysis; conditions: fraction unbound
[4] = Multi-species hepatocyte MetID; conditions: 10 µM parent, 4 h
[5] = Fraction of CYP-mediated metabolism (fm,CYP), hepatocytes ± ABT; conditions: for fraction of CYP-mediated metabolism: 0.3 µM
[6] = test system: Ames strains; experiment: 4-strain Ames assay (with and without S9)
[7] = Compound specific parameters (logD, pKa)
[8] = test system: amphetamine-induced increases in CBV; experiment: Pharmacologic MRI (phMRI), cerebral blood volume
[9] = Kinetic solubility; conditions: PBS buffer
[10] = biological target: hKv1.5 (Homo sapiens, UniProt P22460); experiment: Cardiac Ion Channel Panel (QPatch HT); conditions: 10 μM
[11] = biological target: hNav1.5 (Homo sapiens, UniProt Q14524); experiment: Cardiac Ion Channel Panel (QPatch HT); conditions: 10 µM
[12] = biological target: hCav3.2 (Homo sapiens, UniProt O95180); experiment: Cardiac Ion Channel Panel (QPatch HT); conditions: 10 μM
[13] = biological target: hHCN2 (Homo sapiens, UniProt Q9UL51); experiment: Cardiac Ion Channel Panel (QPatch HT); conditions: 10 μM
[14] = biological target: hKvLQT1/mink (Homo sapiens, UniProt P51787); experiment: Cardiac Ion Channel Panel (QPatch HT); conditions: 10 μM
[15] = biological target: hCav1.2 (Homo sapiens, UniProt Q13936); experiment: Cardiac Ion Channel Panel (QPatch HT); conditions: 10 μM
[16] = biological target: hERG (Homo sapiens, UniProt Q12809); experiment: Cardiac Ion Channel Panel (QPatch HT); conditions: 10 μM
[17] = biological target: hKv1.3 (Homo sapiens, UniProt P22001); experiment: Cardiac Ion Channel Panel (QPatch HT); conditions: 10 μM
[18] = test system: conditioned avoidance response; experiment: Conditioned avoidance response (CAR)
[19] = Phase 1 and phase 2 metabolism, liver microsomes with alamethicin; conditions: for % Remaining T=60 / CLhep: 1 µM
[20] = test system: cardiac ion channels; experiment: Cardiac Ion Channel Panel (QPatch HT), whole panel; conditions: 10 μM
[21] = test system: CYP1A2; experiment: CYP induction, gene expression (mRNA) in cryopreserved human hepatocytes

The chains behind the UniProt entries cited, without tags or fusion partners. Where a name states a change or a piece, a line headed by the entry shows the natural chain unless it says otherwise.
UniProt P22460, whole entry, looked up: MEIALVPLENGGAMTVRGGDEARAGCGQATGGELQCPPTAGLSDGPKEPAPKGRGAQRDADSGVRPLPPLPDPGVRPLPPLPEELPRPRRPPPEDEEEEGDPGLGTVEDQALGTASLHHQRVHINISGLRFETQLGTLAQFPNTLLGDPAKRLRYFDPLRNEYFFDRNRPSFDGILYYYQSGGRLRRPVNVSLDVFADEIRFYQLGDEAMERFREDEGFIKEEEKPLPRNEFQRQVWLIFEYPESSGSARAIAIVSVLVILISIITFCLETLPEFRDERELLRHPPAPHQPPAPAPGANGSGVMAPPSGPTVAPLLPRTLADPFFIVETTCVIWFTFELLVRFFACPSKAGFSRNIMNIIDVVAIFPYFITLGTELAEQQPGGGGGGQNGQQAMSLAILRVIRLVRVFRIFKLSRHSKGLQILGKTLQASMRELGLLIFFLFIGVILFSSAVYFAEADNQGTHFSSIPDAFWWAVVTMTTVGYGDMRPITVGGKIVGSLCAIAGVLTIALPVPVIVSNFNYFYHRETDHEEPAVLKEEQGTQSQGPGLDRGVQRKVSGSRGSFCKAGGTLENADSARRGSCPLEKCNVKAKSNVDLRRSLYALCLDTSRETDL
UniProt Q14524, whole entry, looked up: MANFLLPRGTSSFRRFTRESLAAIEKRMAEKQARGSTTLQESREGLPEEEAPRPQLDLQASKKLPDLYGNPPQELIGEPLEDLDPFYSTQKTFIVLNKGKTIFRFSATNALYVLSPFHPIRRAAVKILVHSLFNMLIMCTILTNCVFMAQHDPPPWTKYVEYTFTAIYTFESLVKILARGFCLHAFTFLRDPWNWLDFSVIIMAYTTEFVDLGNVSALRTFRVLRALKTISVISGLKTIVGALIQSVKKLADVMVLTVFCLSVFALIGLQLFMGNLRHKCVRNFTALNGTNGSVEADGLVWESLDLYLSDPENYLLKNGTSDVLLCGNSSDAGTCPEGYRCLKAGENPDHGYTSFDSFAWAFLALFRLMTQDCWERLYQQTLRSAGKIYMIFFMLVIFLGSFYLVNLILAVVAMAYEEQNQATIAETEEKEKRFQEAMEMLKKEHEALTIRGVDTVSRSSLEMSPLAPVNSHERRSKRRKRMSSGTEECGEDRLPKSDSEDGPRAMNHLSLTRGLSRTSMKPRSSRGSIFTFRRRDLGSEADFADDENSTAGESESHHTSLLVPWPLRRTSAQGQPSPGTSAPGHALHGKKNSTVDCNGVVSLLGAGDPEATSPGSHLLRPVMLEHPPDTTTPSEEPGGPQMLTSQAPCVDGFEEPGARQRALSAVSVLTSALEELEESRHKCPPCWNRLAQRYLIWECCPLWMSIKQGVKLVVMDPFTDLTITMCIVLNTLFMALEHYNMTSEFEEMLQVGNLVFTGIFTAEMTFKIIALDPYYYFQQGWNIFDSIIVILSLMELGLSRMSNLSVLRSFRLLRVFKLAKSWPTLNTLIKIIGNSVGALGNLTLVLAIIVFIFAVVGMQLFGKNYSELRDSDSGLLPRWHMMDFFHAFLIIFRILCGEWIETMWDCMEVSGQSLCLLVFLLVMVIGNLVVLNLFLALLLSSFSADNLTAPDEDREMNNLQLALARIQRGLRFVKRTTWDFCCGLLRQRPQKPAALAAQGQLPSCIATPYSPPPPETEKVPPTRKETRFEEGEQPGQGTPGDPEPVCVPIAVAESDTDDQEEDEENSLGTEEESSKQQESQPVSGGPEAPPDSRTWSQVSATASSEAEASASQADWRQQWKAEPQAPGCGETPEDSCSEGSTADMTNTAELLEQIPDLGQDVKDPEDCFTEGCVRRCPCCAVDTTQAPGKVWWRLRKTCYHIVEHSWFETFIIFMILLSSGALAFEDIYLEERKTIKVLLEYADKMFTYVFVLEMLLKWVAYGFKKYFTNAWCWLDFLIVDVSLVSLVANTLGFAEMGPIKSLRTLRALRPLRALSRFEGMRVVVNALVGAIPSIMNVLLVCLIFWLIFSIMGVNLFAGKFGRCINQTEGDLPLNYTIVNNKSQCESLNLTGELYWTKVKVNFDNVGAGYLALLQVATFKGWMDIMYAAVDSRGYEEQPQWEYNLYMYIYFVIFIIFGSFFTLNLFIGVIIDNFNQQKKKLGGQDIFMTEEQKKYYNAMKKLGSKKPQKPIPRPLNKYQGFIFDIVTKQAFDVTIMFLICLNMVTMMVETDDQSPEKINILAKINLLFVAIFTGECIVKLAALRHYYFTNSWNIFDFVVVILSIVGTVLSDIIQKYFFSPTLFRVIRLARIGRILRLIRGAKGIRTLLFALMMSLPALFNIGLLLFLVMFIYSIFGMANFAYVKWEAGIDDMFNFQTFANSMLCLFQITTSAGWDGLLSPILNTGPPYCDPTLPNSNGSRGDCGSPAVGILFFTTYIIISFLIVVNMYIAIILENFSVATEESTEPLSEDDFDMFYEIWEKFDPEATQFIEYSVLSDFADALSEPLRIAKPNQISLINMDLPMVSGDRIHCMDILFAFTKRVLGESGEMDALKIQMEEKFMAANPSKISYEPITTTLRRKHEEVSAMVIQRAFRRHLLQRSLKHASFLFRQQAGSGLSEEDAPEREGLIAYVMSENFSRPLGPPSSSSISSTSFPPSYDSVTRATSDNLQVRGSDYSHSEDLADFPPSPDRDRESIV
UniProt Q9UL51: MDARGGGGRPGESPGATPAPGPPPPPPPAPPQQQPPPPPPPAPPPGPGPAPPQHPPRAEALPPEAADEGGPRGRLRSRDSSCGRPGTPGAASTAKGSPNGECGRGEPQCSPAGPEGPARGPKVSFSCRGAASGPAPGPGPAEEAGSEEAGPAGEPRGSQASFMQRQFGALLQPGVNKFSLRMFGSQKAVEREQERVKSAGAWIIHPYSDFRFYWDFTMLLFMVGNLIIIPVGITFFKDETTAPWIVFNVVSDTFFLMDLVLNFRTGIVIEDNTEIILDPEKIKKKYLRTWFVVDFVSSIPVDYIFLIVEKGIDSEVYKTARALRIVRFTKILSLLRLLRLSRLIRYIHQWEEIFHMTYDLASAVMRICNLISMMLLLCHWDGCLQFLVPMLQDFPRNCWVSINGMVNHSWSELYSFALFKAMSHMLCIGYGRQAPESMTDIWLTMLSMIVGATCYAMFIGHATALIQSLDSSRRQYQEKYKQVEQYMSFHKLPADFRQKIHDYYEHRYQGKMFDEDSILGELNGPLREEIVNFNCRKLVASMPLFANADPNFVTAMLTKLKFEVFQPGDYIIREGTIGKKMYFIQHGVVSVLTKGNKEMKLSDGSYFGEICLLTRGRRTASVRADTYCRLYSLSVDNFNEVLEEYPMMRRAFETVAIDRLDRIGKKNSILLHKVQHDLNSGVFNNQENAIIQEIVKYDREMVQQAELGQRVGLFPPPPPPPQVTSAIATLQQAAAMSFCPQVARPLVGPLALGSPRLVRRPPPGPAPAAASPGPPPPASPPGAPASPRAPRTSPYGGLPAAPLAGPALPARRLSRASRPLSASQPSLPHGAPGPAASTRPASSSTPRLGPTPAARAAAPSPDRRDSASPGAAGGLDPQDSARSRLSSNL
UniProt Q13936, whole entry, looked up: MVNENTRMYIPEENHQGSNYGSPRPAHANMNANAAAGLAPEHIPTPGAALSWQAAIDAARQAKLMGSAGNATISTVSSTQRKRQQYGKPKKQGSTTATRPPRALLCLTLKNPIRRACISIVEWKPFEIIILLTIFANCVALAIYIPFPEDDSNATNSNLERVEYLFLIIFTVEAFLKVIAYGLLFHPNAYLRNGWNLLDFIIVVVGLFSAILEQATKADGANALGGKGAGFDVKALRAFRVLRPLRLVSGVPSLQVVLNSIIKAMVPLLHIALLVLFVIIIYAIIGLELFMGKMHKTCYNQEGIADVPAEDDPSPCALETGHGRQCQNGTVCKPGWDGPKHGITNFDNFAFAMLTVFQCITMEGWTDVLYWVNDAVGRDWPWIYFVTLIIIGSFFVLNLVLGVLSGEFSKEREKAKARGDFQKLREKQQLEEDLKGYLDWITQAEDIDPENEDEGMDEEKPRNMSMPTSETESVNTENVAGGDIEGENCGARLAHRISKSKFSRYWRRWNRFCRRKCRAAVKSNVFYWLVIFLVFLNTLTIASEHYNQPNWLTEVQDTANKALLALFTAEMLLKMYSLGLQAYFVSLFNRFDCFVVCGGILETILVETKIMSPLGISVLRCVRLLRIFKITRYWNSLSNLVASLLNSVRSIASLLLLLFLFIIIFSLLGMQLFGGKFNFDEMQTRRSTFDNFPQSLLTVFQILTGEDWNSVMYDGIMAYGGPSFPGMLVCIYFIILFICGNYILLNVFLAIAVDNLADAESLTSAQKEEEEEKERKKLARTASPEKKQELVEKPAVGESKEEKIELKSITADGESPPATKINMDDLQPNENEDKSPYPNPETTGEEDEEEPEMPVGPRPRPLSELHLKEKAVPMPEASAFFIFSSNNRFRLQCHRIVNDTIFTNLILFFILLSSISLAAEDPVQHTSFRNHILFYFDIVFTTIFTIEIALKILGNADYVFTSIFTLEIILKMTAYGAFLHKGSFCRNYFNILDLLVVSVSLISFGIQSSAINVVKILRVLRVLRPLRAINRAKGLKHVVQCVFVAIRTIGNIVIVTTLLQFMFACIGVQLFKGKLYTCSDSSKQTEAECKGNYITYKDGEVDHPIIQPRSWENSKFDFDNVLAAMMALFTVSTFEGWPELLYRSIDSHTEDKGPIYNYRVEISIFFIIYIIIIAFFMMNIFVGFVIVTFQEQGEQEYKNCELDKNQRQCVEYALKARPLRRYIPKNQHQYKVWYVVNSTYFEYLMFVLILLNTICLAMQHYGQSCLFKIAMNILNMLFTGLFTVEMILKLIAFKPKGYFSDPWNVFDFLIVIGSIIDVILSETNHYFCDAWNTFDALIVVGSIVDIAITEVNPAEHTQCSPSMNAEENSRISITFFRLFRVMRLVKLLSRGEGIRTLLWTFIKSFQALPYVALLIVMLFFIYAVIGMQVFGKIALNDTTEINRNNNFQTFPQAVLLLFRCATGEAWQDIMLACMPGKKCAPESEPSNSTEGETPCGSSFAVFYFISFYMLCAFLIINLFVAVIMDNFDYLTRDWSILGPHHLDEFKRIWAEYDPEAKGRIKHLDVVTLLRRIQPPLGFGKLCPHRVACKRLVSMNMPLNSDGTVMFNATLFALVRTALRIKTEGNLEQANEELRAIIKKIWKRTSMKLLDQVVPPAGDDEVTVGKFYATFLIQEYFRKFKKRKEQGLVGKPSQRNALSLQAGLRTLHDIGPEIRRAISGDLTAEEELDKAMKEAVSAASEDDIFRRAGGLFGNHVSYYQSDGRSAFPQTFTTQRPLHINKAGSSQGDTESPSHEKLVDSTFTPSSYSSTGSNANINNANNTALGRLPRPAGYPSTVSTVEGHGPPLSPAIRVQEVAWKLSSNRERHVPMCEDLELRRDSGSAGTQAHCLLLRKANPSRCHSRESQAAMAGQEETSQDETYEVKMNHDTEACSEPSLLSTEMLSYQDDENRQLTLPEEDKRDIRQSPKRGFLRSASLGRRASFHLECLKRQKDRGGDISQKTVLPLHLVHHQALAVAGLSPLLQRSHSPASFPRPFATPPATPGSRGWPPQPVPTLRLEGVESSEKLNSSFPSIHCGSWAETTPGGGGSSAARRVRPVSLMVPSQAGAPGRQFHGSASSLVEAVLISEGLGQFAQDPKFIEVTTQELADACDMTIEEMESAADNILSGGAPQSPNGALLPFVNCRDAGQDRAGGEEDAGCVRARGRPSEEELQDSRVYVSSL
UniProt P22001, whole entry, looked up: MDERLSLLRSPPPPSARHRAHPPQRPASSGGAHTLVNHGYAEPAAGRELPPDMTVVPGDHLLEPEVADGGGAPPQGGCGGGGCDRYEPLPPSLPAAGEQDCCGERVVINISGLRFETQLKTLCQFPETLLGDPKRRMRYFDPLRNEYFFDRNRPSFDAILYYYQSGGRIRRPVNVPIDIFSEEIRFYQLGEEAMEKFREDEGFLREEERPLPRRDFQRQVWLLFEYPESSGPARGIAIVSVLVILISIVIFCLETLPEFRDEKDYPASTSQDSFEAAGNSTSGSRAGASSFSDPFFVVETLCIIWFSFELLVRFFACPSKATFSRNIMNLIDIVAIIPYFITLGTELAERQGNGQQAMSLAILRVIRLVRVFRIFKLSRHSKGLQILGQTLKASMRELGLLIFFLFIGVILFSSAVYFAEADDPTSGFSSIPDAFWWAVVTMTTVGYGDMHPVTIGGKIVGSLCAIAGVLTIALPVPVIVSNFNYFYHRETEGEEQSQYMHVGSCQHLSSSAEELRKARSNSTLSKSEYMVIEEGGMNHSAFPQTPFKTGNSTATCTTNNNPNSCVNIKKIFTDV

Structure (SMILES): Cc1nnc2sc3c(NCc4ccc(C(C)(C)O)cc4)ncnc3c2c1C
- turnover after 90 min ([1]; monkey liver S9): no turnover was observed
- % test compound remaining ([1]; monkey liver S9, 1 µM, 90 min): 100%
- turnover after 90 min ([2]; human liver S9): no turnover was observed
- % test compound remaining ([2]; human liver S9, 1 µM, 90 min): 100%
- rat fu,brain [3]: 0.015
- % Total Peak Area (MS) ([4]; dog hepatocytes): 71.6%
- % Total Peak Area (MS) ([4]; human hepatocytes): 59.1%
- % Total Peak Area (MS) ([4]; minipig hepatocytes): 18.8%
- % Total Peak Area (MS) ([4]; monkey hepatocytes): 23.5%
- % Total Peak Area (MS) ([4]; rat hepatocytes): 41.4%
- non-CYP-mediated metabolism ([5]; NHP hepatocytes): 56%
- fraction of CYP-mediated metabolism ([5]; dog hepatocytes): 87%
- non-CYP-mediated metabolism ([5]; human hepatocytes): 51%
- fraction of CYP-mediated metabolism ([5]; human hepatocytes, ± ABT): 49%
- fraction of CYP-mediated metabolism ([5]; monkey hepatocytes, ± ABT): 44%
- fraction of CYP-mediated metabolism ([5]; rat hepatocytes): 93%
- Ames result [6]: negative
- logD [7]: 3.5
- CBV response, compound alone ([8]; 10 mg/kg po alone): no significant CBV responses
- effect on amphetamine-evoked increases in CBV ([8]; 1 or 10 mg/kg p.o., 30 min pretreatment, amphetamine 1 mg/kg s.c.): dose-dependently attenuated amphetamine-evoked increases in CBV
- kinetic solubility [9]: 15 µM (≈ 5.69 µg/mL)
- Mean % Inhibition [10]: 0.3%
- Mean % Inhibition ([11]; Phasic): 2.8%
- Mean % Inhibition ([11]; Tonic): 3.0%
- Mean % Inhibition [12]: 8.3%
- Mean % Inhibition [13]: 3.9%
- Mean % Inhibition [14]: 1.5%
- Mean % Inhibition [15]: 12.4%
- Mean % Inhibition [16]: 4.2%
- Mean % Inhibition [17]: -1.0%
- effect on avoidance and escape responses ([18]; combined with threshold dose of risperidone (0.2 mg/kg)): affected avoidance and escape responses to a larger degree at lower doses
- effect on avoidance and escape responses ([18]; compound alone): only a moderate effect on avoidance and escape responses at 30 mg/kg
- % remaining after 1 h ([19]; human liver microsomes, regardless of cofactor): > 85%
- % Remaining T=60 ([19]; human, with NADPH): 94%
- CLhep ([19]; human, with NADPH): < 4.70 mL/min/kg
- % Remaining T=60 ([19]; human, with NADPH and UDPGA): 91%
- CLhep ([19]; human, with NADPH and UDPGA): < 4.70 mL/min/kg
- % Remaining T=60 ([19]; human, with UDPGA): 110%
- CLhep ([19]; human, with UDPGA): < 4.70 mL/min/kg
- % Remaining T=60 ([19]; monkey, with NADPH): 17%
- CLhep ([19]; monkey, with NADPH): 28.7 mL/min/kg
- % Remaining T=60 ([19]; monkey, with NADPH and UDPGA): 25%
- CLhep ([19]; monkey, with NADPH and UDPGA): 26.3 mL/min/kg
- % Remaining T=60 ([19]; monkey, with UDPGA): 80%
- CLhep ([19]; monkey, with UDPGA): 9.80 mL/min/kg
- inhibition across cardiac ion channel panel [20]: < 13%
- CYP1A2 gene expression ([21]; 0.1 µM, donor 1): 0.96 ± 0.08 fold of DMSO control
- CYP1A2 gene expression ([21]; 0.1 µM, donor 2): 1.12 ± 0.09 fold of DMSO control
- CYP1A2 gene expression ([21]; 0.1 µM, donor 3): 1.41 ± 0.23 fold of DMSO control
- CYP1A2 gene expression ([21]; 0.3 µM, donor 1): 1.37 ± 0.36 fold of DMSO control
- CYP1A2 gene expression ([21]; 0.3 µM, donor 2): 1.18 ± 0.08 fold of DMSO control
- CYP1A2 gene expression ([21]; 0.3 µM, donor 3): 1.69 ± 0.22 fold of DMSO control
- CYP1A2 gene expression ([21]; 1 µM, donor 1): 1.22 ± 0.05 fold of DMSO control
- CYP1A2 gene expression ([21]; 1 µM, donor 2): 1.08 ± 0.04 fold of DMSO control
- CYP1A2 gene expression ([21]; 1 µM, donor 3): 1.24 ± 0.05 fold of DMSO control
- CYP1A2 gene expression ([21]; 3 µM, donor 1): 1.11 ± 0.06 fold of DMSO control
- CYP1A2 gene expression ([21]; 3 µM, donor 2): 0.75 ± 0.06 fold of DMSO control
- CYP1A2 gene expression ([21]; 3 µM, donor 3): 1.63 ± 0.18 fold of DMSO control
- CYP1A2 gene expression ([21]; 10 µM, donor 1): 0.75 ± 0.07 fold of DMSO control
- CYP1A2 gene expression ([21]; 10 µM, donor 2): 0.54 ± 0.03 fold of DMSO control
- CYP1A2 gene expression ([21]; 10 µM, donor 3): 0.87 ± 0.05 fold of DMSO control

Reference: PMC12142581
